The results in this text go back to patent US4835157A, “Thieno- and furopyrimidine-2,4-dione piperidine derivatives as serotonin antagonists and alpha adrenergic blocking agents” (Ortho Pharmaceutical Corporation, priority 1988, dated 1989).

Amino acid sequences for entries named in this document (tags omitted).
UniProt P14842, whole entry: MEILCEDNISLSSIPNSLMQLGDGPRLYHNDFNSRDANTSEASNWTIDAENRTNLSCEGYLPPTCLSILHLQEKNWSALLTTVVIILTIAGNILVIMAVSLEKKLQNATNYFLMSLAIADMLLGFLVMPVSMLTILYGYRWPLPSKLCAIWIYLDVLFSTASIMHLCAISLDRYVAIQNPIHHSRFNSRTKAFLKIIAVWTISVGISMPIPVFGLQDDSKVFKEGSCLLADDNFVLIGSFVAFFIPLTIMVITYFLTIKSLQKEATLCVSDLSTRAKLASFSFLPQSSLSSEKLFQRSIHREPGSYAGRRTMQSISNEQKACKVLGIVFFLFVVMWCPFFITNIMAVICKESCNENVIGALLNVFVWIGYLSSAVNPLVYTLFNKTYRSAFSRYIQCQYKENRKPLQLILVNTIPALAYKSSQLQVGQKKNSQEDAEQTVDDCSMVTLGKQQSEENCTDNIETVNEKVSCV

SMILES strings stand for the structures.

This test addresses 5HT2 (Rattus norvegicus, UniProt P14842). Put plainly: Brain Serotonin (5-HT2) Radioreceptor Assay (3H-ketanserin displacement, rat frontal cortex membranes). To be noted: 15 min at 37° C. Also noted: dissected from brains obtained from female rats; from tissue; host or cells: frontal cortex of female rats (about 150 g), membrane fragments. The format is binding. Here is the method:
Brain Serotonin (5-HT2) Radioreceptor Assay
The test objects of this Example were rat frontal cortex membranes. Mebrane fragments were prepared from the frontal cortex dissected from brains obtained from female rats (≈150 g). […] Compound bound to the receptor site was separated from the remaining unbound compound by vacuum filtration. […] Specific binding was determined by the difference between total counts bound and counts bound in the presence of 10^-6 M methysergide.

One may read the IC50 as the point on the concentration scale where inhibition reaches its midpoint. Read a low IC50 as greater potency.

`Cc1nc2sccn2c(=O)c1CCN1CCC(=C(c2ccc(F)cc2)c2ccc(F)cc2)CC1` [Ritanserin, reference compound]: the IC50 came out at 2.1 nM.
